# Laboratory results reported in publication PMC10781691, “Vertical pathway inhibition of receptor tyrosine kinases and BAD with synergistic efficacy in triple negative breast cancer” (NPJ Precision Oncology, 2024).
# Tested on: MDA-MB-231 xenografts
# Experiment: Orthotopic xenograft, combination study
# Format: in vivo, BALB/c-nude mice
# Experimental: In vivo bioluminescent imaging was performed to determine the incidence and metastatic burden of luciferase-labeled 4T1 cells. Mice were injected i.p. with 10 mg/ml of D-luciferin (Gold Biotechnology, MO, USA) and imaged using a PerkinElmer IVIS Spectrum system. PDX were generated as previously described by transplanting fresh fragments orthotopically into 8-week-old female nonobese diabetic (NOD)/severe combined immunodeficient (SCID) mice (Beijing Vital River Laboratory Animal Technology Co., Beijing, China) (P1, passage 1)[40]. The P1 xenografts were then fragmented, digested into single-cell suspension and implanted into mammary fat pad (100 μL PBS containing growth factor reduced 50% Matrigel) of NOD/SCID mice. Once orthotopic xenografts reached an approximate size of 100 mm^3, the mice were randomly divided into three groups (n = 8) for single drug studies and six groups (n = 6) for combination studies and Kaplan-Meier (KM) analyses. […] Animal body weight and xenograft size were measured daily using an electronic balance and a digital caliper, respectively. Xenograft volume (mm^3) was calculated by using the formula: 0.52 × length × [width]^2. Complete response (CR) was achieved if the average xenograft volume for the treatment group was unable to be determined for two or more consecutive measurements. Partial response (PR) was achieved if the average xenograft volume reduced to <50 mm^3 for two or more consecutive measurements. After 3-week drug treatment, all mice were sacrificed by CO2 inhalation. Tumor and vital organs were weighed and isolated for further analysis. IHC analysis of xenograft histology sections and quantitative polymerase chain reaction (qPCR) were performed as previously described.
# Data represent means ± SD. *P < 0.05, **P < 0.01, and ***P < 0.001.
# Data represent means ± SD (n=6). *P < 0.05, **P
# < 0.01, and ***P < 0.001.
# Abbreviations: ALT/GOT, alanine
# aminotransferase/ glutamic oxaloacetic transaminase; AST/GPT, aspartate aminotransferase/
# glutamic pyruvic transaminase; CREA, creatinine; UREA, urea; and ALB, albumin. Data […]
smiles,measurement,setting,value
C[C@@H](Oc1cc(-c2cnn(C3CCNCC3)c2)cnc1N)c1c(Cl)ccc(F)c1Cl [Crizotinib],cells of human origin in lung sections (IHC staining of human HPRT),MDA-MB-231-engrafted mice,detectable
same,complete regression of xenografts (number of xenografts),"day 21, NCK 20 mg/kg q.d., OSI-930 20 mg/kg q.d., Crizotinib 50 mg/kg b.i.w.",1/6
same,"lung metastasis incidence (mice with detectable lung hHPRT mRNA, qPCR)","n = 6, vehicle 3 out of 6",3/6
